Experimental data from PubChem BioAssay AID1347404 (Pan Lab, Icahn School of Medicine at Mount Sinai, 2020).
The list shows a part of the results, in another mix than the full data. Activity calls are given as the source filed them. Rule as the data show it: active = inhibition above about 25%; inactive = the rest.

Sequences of proteins named here, by UniProt entry; tags and fusion partners are left off.
UniProt P62877, whole entry, looked up: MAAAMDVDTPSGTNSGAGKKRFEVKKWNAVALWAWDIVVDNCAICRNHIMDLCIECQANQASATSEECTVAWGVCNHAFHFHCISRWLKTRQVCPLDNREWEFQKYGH
UniProt Q13616, whole entry, looked up: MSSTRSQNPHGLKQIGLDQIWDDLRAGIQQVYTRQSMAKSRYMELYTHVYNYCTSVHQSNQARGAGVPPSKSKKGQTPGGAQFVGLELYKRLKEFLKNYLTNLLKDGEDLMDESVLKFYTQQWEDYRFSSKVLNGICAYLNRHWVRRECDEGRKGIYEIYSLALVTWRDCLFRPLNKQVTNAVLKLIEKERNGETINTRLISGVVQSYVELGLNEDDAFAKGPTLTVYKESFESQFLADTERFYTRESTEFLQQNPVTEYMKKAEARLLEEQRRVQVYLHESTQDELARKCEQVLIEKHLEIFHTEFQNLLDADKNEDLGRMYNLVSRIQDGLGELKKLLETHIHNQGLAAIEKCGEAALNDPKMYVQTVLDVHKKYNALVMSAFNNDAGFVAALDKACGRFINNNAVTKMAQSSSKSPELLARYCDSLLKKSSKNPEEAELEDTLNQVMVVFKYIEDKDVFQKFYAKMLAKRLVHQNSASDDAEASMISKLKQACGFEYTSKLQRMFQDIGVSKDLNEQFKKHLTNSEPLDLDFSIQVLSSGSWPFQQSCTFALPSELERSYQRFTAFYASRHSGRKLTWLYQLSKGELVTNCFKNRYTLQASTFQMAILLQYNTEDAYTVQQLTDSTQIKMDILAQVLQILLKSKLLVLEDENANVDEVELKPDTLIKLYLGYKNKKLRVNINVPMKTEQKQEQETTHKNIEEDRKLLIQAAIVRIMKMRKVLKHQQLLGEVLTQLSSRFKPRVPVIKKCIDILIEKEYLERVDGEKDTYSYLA

The compounds below were run against E3 ubiquitin-protein ligase RBX1 (Homo sapiens) + Cullin-1 (Homo sapiens) (UniProt P62877+Q13616) (assay: inhibitors of human ROC1-CUL1 ubiquitin ligase activity (AID 1347404)). Conditions: in vitro K48 di-Ub FRET, acceptor:donor ratio, 45 min; at 10 µM; active compounds read high.

Structure (SMILES) | inhibition
COc1cc(C(=O)NCC2(N3CCOCC3)CCCCC2)cc(OC)c1OC | inactive: 4.93%
Cc1ccccc1C(=O)NCC1(N(C)C)CCCCC1 | inactive: 3.71%
CC(C)(C)c1ccc(C(=O)NCC2(N3CCOCC3)CCCCC2)cc1 | inactive: 1.8%
CN(C)C1(CNC(=O)c2ccc(C(C)(C)C)cc2)CCCCC1 | inactive: -3.72%
O=C(NCC1(N2CCOCC2)CCCCC1)c1ccccc1 | inactive: -7.51%
O=C(NCC1(N2CCOCC2)CCCCC1)c1ccccc1[N+](=O)[O-] | inactive: 1.85%
O=C(NCC1(N2CCOCC2)CCCCC1)c1ccc([N+](=O)[O-])cc1 | inactive: -8.57%
O=C(OC1CN2CCC1CC2)C1c2ccccc2C=Cc2ccccc21 (configuration not stated) | inactive: -7.3%
NC(=O)C1(Nc2ccccc2)CCN(Cc2ccccc2)CC1 | inactive: -0.72%
CCCCOc1ccccc1C(=O)NCC1(N2CCOCC2)CCCCC1 | inactive: -5.04%
O=C(NCC1(N2CCOCC2)CCCCC1)c1ccccc1Br | inactive: -9.57%
CCCOc1cccc(C(=O)NCC2(N3CCOCC3)CCCCC2)c1 | inactive: -3.36%
CN1CCC(Nc2ccccc2)CC1 | inactive: 3.34%
CCOc1ccc(C(=O)NCC2(N3CCOCC3)CCCCC2)cc1 | inactive: -10.2%
O=C(NCC1(N2CCOCC2)CCCCC1)c1ccc(Cl)cc1 | inactive: -4.36%
COc1ccccc1C(=O)NCC1(N2CCOCC2)CCCCC1 | inactive: -5.29%
N#CC1(Nc2ccccc2)CCN(Cc2ccccc2)CC1 | inactive: -5.79%
